# Test results: ChEMBL document CHEMBL4330073, “Discovery and development of small molecule modulators targeting glutamine metabolism” (Eur J Med Chem, 2019)
# Molecular target: T1, Glutaminase kidney isoform, mitochondrial (Homo sapiens, UniProt O94925)
# T1 sequence (O94925 whole entry): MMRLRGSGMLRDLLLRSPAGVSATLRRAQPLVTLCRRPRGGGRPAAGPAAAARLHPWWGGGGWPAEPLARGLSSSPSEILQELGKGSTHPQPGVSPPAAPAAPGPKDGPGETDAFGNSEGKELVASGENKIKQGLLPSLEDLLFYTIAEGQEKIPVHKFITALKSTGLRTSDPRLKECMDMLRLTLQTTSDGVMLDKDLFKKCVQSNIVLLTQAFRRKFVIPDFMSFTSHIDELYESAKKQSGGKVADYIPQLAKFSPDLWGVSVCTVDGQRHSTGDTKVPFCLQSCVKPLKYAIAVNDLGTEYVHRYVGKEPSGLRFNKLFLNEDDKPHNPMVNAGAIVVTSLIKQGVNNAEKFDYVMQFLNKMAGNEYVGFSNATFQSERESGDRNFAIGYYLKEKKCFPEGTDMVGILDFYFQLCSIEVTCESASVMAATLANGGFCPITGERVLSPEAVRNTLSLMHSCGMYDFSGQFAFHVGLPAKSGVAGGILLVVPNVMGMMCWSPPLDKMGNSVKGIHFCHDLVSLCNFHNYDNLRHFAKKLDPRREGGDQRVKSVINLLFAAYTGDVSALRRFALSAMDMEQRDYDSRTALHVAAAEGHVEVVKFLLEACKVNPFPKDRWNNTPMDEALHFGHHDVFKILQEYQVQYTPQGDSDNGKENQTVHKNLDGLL
# Test: Inhibition of GAC (unknown origin)
smiles,measurement,value
O=C(Cc1ccccc1)Nc1nnc(CCCCc2nnc(NC(=O)Cc3ccccc3)o2)o1,IC50,> 20 µM
